B1: RAC-alpha serine/threonine-protein kinase (Homo sapiens), P31749 (parent)
chain: MSDVAIVKEGWLHKRGEYIKTWRPRYFLLKNDGTFIGYKERPQDVDQREAPLNNFSVAQCQLMKTERPRPNTFIIRCLQWTTVIERTFHVETPEEREEWTTAIQTVADGLKKQEEEEMDFRSGSPSDNSGAEEMEVSLAKPKHRVTMNEFEYLKLLGKGTFGKVILVKEKATGRYYAMKILKKEVIVAKDEVAHTLTENRVLQNSRHPFLTALKYSFQTHDRLCFVMEYANGGELFFHLSRERVFSEDRARFYGAEIVSALDYLHSEKNVVYRDLKLENLMLDKDGHIKITDFGLCKEGIKDGATMKTFCGTPEYLAPEVLEDNDYGRAVDWWGLGVVMYEMMCGRLPFYNQDHEKLFELILMEEIRFPRTLGPEAKSLLSGLLKKDPKQRLGGGSEDAKEIMQHRFFAGIVWQHVYEKKLSPPFKPQVTSETDTRYFDEEFTAQMITITPPDQDDSMECVDSERRPHFPQFSYSASGTA
partner: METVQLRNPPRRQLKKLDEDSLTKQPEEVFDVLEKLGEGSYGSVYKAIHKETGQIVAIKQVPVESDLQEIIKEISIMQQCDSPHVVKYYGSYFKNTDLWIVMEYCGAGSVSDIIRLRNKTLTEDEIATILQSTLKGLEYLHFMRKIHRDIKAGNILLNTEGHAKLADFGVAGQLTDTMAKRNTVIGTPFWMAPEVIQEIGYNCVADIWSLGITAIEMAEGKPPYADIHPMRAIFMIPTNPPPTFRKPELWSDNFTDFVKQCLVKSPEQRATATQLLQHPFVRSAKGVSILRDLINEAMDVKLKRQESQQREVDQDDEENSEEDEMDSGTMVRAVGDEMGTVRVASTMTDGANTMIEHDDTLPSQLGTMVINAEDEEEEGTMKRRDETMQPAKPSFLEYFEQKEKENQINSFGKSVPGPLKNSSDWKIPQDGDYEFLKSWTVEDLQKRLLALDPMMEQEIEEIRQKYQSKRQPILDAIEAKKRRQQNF

Variants of: B1
Conditions: with stk4_human STK4, Q13043

effect of a mutation on the interaction | Variant
disrupting interaction | P427A
disrupting interaction | P424A
